Reference: patent US9139532B2, “Pyrazolyl guanidine F1F0-atpase inhibitors and therapeutic uses thereof” (Lycera Corporation, priority 2010, dated 2015)

How the values were obtained:
Ramos cells = experiment: Cytotoxicity in Ramos cells; format: cell-based; settings: read-out: Ramos Cell EC50
F1F0-ATPase = F1F0-ATPase (Bos taurus, UniProt P13621); experiment: Inhibition of F1F0-ATPase activity in synthesizing ATP; format: biochemical; settings: read-out: ATP Syn IC50; inhibition of ATP synthesis by F1F0-ATPase

## COC[C@H](C)NC(=NC(=O)c1ccc(F)cc1)Nc1cc(C(F)(F)F)n[nH]1
Ramos cells
  EC50: > 10 µM
F1F0-ATPase
  IC50: < 10 µM

## CCOC[C@H](C)NC(=NC(=O)c1ccc(Cl)cc1)Nc1cc(-c2cc(F)cc(F)c2)n[nH]1
Ramos cells
  EC50: > 10 µM
F1F0-ATPase
  IC50: < 10 µM

## COC[C@H](C)NC(=NC(=O)c1ccc(C(F)(F)F)nc1)Nc1cc(C(F)(F)F)n[nH]1
Ramos cells
  EC50: < 10 µM
F1F0-ATPase
  IC50: < 10 µM

## Cc1ccc(-c2cc(NC(=NC(=O)c3ccc(C(F)(F)F)cc3)NCCCOC(C)C)[nH]n2)cc1F
Ramos cells
  EC50: < 10 µM
F1F0-ATPase
  IC50: < 10 µM

## COC[C@H](C)NC(=NC(=O)c1cccnc1C(F)(F)F)Nc1cc(-c2ccc(F)cc2)n[nH]1
Ramos cells
  EC50: > 10 µM
F1F0-ATPase
  IC50: > 10 µM

## CCOC[C@H](C)NC(=NC(=O)c1ccc(F)cc1)Nc1cc(-c2ccc(C)c(F)c2)n[nH]1
Ramos cells
  EC50: < 10 µM
F1F0-ATPase
  IC50: < 10 µM
